# Laboratory results from US7012089B2, “[1,4]Diazocino[7,8,1-hi]indole derivatives as antipsychotic and antiobesity agents” (Wyeth, priority 2002, dated 2006).
# By UniProt entry, the sequences of proteins in these tests, tags left out. Residues count along the entry.
# UniProt P28335, 33-458: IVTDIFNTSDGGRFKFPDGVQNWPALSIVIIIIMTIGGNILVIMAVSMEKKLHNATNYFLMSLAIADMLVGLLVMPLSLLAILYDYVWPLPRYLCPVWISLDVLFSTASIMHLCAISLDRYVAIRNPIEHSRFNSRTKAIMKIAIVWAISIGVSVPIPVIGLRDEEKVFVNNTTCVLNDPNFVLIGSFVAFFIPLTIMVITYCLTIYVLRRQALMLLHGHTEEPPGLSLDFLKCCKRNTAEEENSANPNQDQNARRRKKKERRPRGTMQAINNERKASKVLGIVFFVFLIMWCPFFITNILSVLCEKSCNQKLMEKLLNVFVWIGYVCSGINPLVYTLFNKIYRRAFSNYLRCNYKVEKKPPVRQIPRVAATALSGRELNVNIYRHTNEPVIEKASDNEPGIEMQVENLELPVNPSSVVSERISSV
# Legend:
# human 5-HT2C receptor = human 5-HT2C receptor (Homo sapiens, UniProt P28335); assay: 5-HT2C receptor-stimulated calcium mobilization (FLIPR) in CHO cells; conditions: reference compounds
# [1] = target: human 5-hydroxytryptamine-2C (h-5-HT2C) receptor (Homo sapiens, UniProt P28335); assay: [125I]DOI binding to membranes of CHO cells expressing the h-5-HT2C receptor; conditions: reference compounds; displacement of [125I]DOI, CHO cell membranes; read-out: Ki (95% confidence interval)
substance,measurement,setting,value
"1-(2,5-dimethoxy-4-iodophenyl)isopropylamine [DOI, reference compound]",EC50,human 5-HT2C receptor,0.5 nM
same,Ki,[1],6.2 nM
